Experimental data published in patent US8877773B2, “Methods for treating chronic obstructive pulmonary disease” (Indiana University Research and Technology Corporation, priority 2009, dated 2014).

Key:
Type in all cases: in vivo, rat
control rats = assay: Baseline behavior and cardiovascular activity in control rats; details: control rats (no 1-AG or NaLac), 30 mg/kg i.p., 30 min following injection
Protocol: In experiments 4-6, rats were made panic vulnerable with 1-AG. 5 days after 1-AG onset, in a counterbalanced design, rats received intraperitoneal (i.p.) injections of treatment drug or vehicle 30 min prior to i.v. infusions. In experiment 4, rats were injected with the ORX1 receptor antagonist SB334867 (N-(2-Methyl-6-benzoxazolyl)-N′-1,5-naphthyridin-4-yl urea) (30 mg/kg, Tocris, in 0.2 ml/100 g volume DMSO, n=12), alprazolam (3 mg/kg, Sigma, in 0.2 ml/100 g volume DMSO, n=6) or vehicle (0.2 ml/100 g volume DMSO, n=11) 30 min prior to a NaLac challenge and, immediately after, a SI test was used to assess anxiety behavior. In experiment 5, baseline in an open field (OF) behavior test of anxiety was assessed (n=8) prior to 1-AG infusions. […] In experiment 7, control rats (no 1-AG or NaLac treatment) were assessed in a SI test. 48 h later these rats received an i.p. injection of an ORX1 receptor antagonist (30 mg/kg SB334867, Tocris, in 0.2 ml/100 g volume DMSO, n=7) or vehicle (0.2 ml/100 g volume DMSO, n=7) and 30 min post injection cardiovascular activity was monitored for 20 min followed by an immediate SI test.
Adult male Sprague-Dawley rats were anesthetized and surgically implanted with telemetrical probes to measure cardiovascular activity prior to and during lactate infusions. […] Cardiovascular activity and SI tests were monitored 30 min following injection at similar time points.

[1] = system: panic-prone (1-AG treated) rats; assay: Sodium lactate (NaLac) challenge in panic-prone (1-AG treated) rats: social interaction (SI) test
Excerpt: The minipump was then sutured into place subcutaneously at the nape of the neck. The concentration of the solutions was such that 3.5 nmol/[…] per hour of 1-AG or d-AG was infused continuously into the DMH/PeF region for the remainder of the given experiment. In the case of the siRNA experiments specialized T-cannulae were implanted permitting access to a removable 28 g injector to direct siRNA injections to the same location as the 1-AG infusions. Additionally these rats had guide cannulae directed to the opposite DMH/PeF for bilateral infusion of siRNA.
(§1) Rats received intravenous (i.v.) infusions (10 ml over 15 min of either 0.5M NaLac or 0.9% isotonic saline (when applicable)) using a syringe pump at least five days following the initiation of 1-AG or d-AG infusions. Once a stable baseline was achieved, i.v. infusions began and cardiovascular and activity data were recorded for 15 min (similar to clinical NaLac infusions).
Another SI test was performed 5 days following minipump infusions and immediately following saline or sodium lactate infusions.
In experiment 3, an RNAase free environment was maintained throughout the injection procedure and all injectors, syringes and tubing were exposed to RNaseZAP and rinsed thoroughly with RNA-free water prior to siRNA injections. […] Rats with 1-AG minipumps and telemetric probes had siORX or siCON injected bilaterally through guide canulae opposite the 1-AG injector and through the minipump canulae ipislateral to 1-AG infusion. 48 hrs after siORX or siCON treatment, these rats were exposed to saline or NaLac infusions (siCon/Sal n=4, siORX/Sal n=6, siCON/Lac n=5, siORX/Lac n=6) and SI behavioral and cardiovascular responses were recorded, and were then sacrificed by rapid decapitation, following a brief (30 s) exposure to IsoFlurane® 1 hr after the intravenous infusions.
In experiments 4-6, rats were made panic vulnerable with 1-AG. […] In experiment 5, baseline in an open field (OF) behavior test of anxiety was assessed (n=8) prior to 1-AG infusions. […]

[2] = system: panic-prone (1-AG treated) rats; assay: Sodium lactate (NaLac) challenge in panic-prone rats: radio-telemetry of locomotor and cardiovascular (HR, MAP) responses
Protocol: Telemetry probes (Data Science International, St. Paul Minn.) were surgically implanted into the abdomen of anaesthetize rats to measure locomotor responses. Cardiovascular responses were measured by a femoral arterial line connected to the telemetric probe which contained a pressure transducer (Data Science International, St. Paul Minn.).
The minipump was then sutured into place subcutaneously at the nape of the neck. The concentration of the solutions was such that 3.5 nmol/[…] per hour of 1-AG or d-AG was infused continuously into the DMH/PeF region for the remainder of the given experiment. […]
as §1
Cardiovascular responses (i.e., MAP and HR) were measured by a femoral arterial line connected to a telemetric probe which contained a pressure transducer (Cat. no. C50-PXT, Data Science International (DSI) St. Paul Minn.). […] MAP and HR were recorded continuously in freely moving conscious rats and are expressed as a 20 min time course. […]

c-Fos = c-Fos immunoreactive cell counts in brain regions after FG-7142 challenge; details: FG-7142 7.5 mg/kg ip after vehicle (veh/FG) or SB334867 30 mg/kg ip (SB/FG); 90 min
Protocol: In this experiment, rats were split into 3 drug treatment groups (n=8/group), where the rats each received the following: group 1) a vehicle injection (0.2 ml DMSO in 100 g volume dH2O) followed by another vehicle (0.2 ml DMSO/0.1 ml TWEEN80 in 100 g volume dH2O) with injection; group 2) a vehicle injection followed by an inverse benzodiazepine agonist (FG-7142, 7.5 mg/kg ip, Sigma); or in group 3) an orexin 1 receptor antagonist (SB334867, 30 mg/kg ip, Tocris) followed by FG-7142. Fifteen min after the FG-7142 injection, all rats were tested for anxiety behavior using a 5 min open field test (OFT); 5 min social interaction (SI) test; then a 5 min elevated plus maze (EPM) test. Ninety min following FG-7142 injections, rats were anaesthetized and then the brains were removed and processed for immunohistochemistry as described in detail in subsequent section.
Ninety min following the initiation of treatment, rats were anaesthetised with an overdose of sodium pentobarbital (40 mg, i.p.) then perfused transcardially with 0.05 M phosphate buffered saline (PBS; 250 ml), followed by 0.1 M sodium phosphate buffer (PB; 250 ml) containing 4% paraformaldehyde (PFA) and 3% sucrose. Brains were removed and post-fixed for 24 h in the same fixative, rinsed for 24 h in 0.1 M PB, then placed in cryoprotectant (30% sucrose in 0.1 M PB) for an additional 4-5 days. To maintain a consistent plane for coronal sections, brains were placed in a rat brain matrix (ASI instruments, Model No. RBM-4000C) and cut with a razor blade at the caudal border of the mammillary bodies. Brains were frozen in cooled liquid isopentane made by immersing a plastic vessel containing isopentane into a dewar flask containing liquid nitrogen. Serial coronal sections (30 μm) were cut using a cryostat and were immediately placed in cryoprotectant consisting of 27% ethylene glycol and 16% glycerol in 0.05 M PB to yield six alternate sets of sections. Sections were stored at −20° C. until immunohistochemical processing.
All brain sections were immunostained with the c-Fos primary antibody in a single immunohistochemical run, rather than in batches, with large volume incubations to limit variability in the quality of immunohistochemical staining among brain sections. However, the forebrain was immunostained for c-Fos in one run and the brainstem (i.e., midbrain, pons and medulla) in another. Immunostaining for c-Fos protein was accomplished using an affinity-purified primary antibody directed at c-Fos (rabbit anti-human c-Fos polyclonal affinity-purified antibody, Cat. no. sc-52, Santa Cruz Biotechnology, San Diego, Calif.; diluted 1:10,000). Free-floating sections were washed in 0.1 M PBS for 30 min, then incubated in 1% H2O2 in PBS for 20 min. Sections were then washed 10 min in PBS and 20 min in PBS with 0.3% Triton X-100 (PBST). Sections were then incubated 12-16 h in PBST with primary antibody solution at room temperature. After a 30 min wash in PBST, sections were incubated for 2 hr in biotinylated goat anti-rabbit IgG (Cat no. BA-1000, Vector Laboratories, Burlinghame, Calif.; diluted 1:500). Sections were washed again for 30 min in PBST then incubated 1.5 hr in an avidin-biotin-peroxidase complex provided in a standard Vector Elite kit (Cat no. PK-6100, Vector Laboratories, diluted 1:200). The peroxidase substrate for the chromogen reaction was Vector SG, which was prepared as recommended by the manufacturer (Cat. no. SK-4700, Vector Laboratories). The substrate reaction was run for 20 min for the forebrain. All sections were mounted on clean glass slides, dried overnight, dehydrated and mounted with coverslips using DPX mounting medium (BDH Laboratory Supplies, Poole, UK). All washes and incubations were done at room temperature in 12-well polystyrene plates with low frequency shaking on an orbital shaker. […]

Q: With Cc1nc2ccc(NC(=O)Nc3ccnc4cccnc34)cc2o1 [SB334867, N-(2-Methyl-6-benzoxazolyl)-N′-1,5-naphthyridin-4-yl urea] as the compound, how does the “SI duration (anxiety) in control rats” value (control rats) read?
A: had no effect; also recorded: did not alter

Q: And the “duration of SI (anxiety-like behavior) after lactate challenge, injection into the BNST” value ([1]; 1-AG treated rats, unilateral 300 pmoles/100 nl into bed nucleus of the stria terminalis 30 min prior to lactate, vs vehicle)?
A: restored the duration of SI to normal baseline levels; also recorded: reduced the duration of SI; also recorded: reduced anxiety-like behavior

Q: And the “anxiety-like responses (social interaction (SI) duration) after NaLac challenge” value ([1]; panic-prone rats, i.p. 30 min prior to NaLac, SB334867/SB408124 30 mg/kg, alprazolam 3 mg/kg, experiments 4 and 6)?
A: attenuated

Q: What about the “all lactate induced panic-like responses (SI, Activity, HR, MAP)” value ([1]; panic-prone rats, i.p. 30 min prior to lactate, SB334867 30 mg/kg, alprazolam 3 mg/kg) of the same compound?
A: attenuated

Q: And the “general locomotor activity after NaLac challenge” value ([2]; 30 mg/kg i.p., experiment 5 (open field cohort))?
A: No change was detected

Q: What about the “NaLac induced increases in general locomotor activity” value ([2]; i.p. 30 min prior to NaLac, SB334867/SB408124 30 mg/kg, alprazolam 3 mg/kg, experiments 4 and 6) of the same compound?
A: attenuated; also recorded: blocked

Q: And the “Mean number of c-Fos immunoreactive cells, Amygdala (−2.56 mm bregma) BLA” value (c-Fos)?
A: 6 ± 2

Q: And the “Mean number of c-Fos immunoreactive cells, Amygdala (−2.56 mm bregma) LA” value (c-Fos)?
A: 6 ± 1

Q: What about the “Mean number of c-Fos immunoreactive cells, Amygdala (−2.56 mm bregma) MeA” value (c-Fos) of the same compound?
A: 91 ± 21

Q: What about the “Mean number of c-Fos immunoreactive cells, DRN (−7.80 mm bregma)” value (c-Fos) of the same compound?
A: 1 ± 0

Q: And the “Mean number of c-Fos immunoreactive cells, ILC (+2.60 mm bregma)” value (c-Fos)?
A: 14 ± 8

Q: And the “Mean number of c-Fos immunoreactive cells, IPBN (−9.30 mm bregma)” value (c-Fos)?
A: 10 ± 3

Q: And the “Mean number of c-Fos immunoreactive cells, LC (−10.04 mm bregma)” value (c-Fos)?
A: 45 ± 9

Q: What about the “Mean number of c-Fos immunoreactive cells, LSI (+0.20 mm bregma)” value (c-Fos) of the same compound?
A: 10 ± 4

Q: What about the “Mean number of c-Fos immunoreactive cells, PRL (+2.60 mm bregma)” value (c-Fos) of the same compound?
A: 2 ± 0

Q: And the “Mean number of c-Fos immunoreactive cells, PeF (−3.14 mm bregma)” value (c-Fos)?
A: 65 ± 20

Q: What about the “Mean number of c-Fos immunoreactive cells, mPBN (−9.30 mm bregma)” value (c-Fos) of the same compound?
A: 2 ± 1

Entries after “also recorded” stand apart in the source; their conditions may differ.
